Results: ChEMBL document CHEMBL4257592 (J Med Chem, 2018)

Key:
[1] = biological target: T1, 17-beta-hydroxysteroid dehydrogenase type 2 (Homo sapiens) (UniProt P37059); conditions: 100 nM
T1 sequence (whole entry): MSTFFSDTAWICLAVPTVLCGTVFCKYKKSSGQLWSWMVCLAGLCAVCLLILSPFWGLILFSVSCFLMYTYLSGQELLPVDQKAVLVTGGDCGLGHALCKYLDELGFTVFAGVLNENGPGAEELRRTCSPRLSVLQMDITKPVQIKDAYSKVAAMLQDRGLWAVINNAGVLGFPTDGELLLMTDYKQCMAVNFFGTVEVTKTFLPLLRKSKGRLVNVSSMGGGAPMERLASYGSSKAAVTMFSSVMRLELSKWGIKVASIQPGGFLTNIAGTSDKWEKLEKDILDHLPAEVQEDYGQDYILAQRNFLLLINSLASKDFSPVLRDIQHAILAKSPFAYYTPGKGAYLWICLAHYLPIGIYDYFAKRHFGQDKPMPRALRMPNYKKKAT

[2] = biological target: T2, Estradiol 17-beta-dehydrogenase 2 (Mus musculus) (UniProt P51658); conditions: at 50 nM
T2 sequence (whole entry): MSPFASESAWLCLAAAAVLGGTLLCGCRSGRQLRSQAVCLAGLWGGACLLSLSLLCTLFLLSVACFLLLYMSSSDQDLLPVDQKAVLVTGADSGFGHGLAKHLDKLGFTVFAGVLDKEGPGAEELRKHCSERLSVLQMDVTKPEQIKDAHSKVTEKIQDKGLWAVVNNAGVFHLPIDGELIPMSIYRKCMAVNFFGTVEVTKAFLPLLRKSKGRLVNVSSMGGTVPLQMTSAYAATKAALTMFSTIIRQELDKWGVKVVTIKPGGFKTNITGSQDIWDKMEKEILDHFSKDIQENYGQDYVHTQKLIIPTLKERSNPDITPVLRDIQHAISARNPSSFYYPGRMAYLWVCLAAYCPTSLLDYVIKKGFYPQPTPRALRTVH

[3] = biological target: T3, 17-beta-hydroxysteroid dehydrogenase type 1 (Mus musculus) (UniProt P51656); conditions: at 1000 nM
T3 sequence (whole entry): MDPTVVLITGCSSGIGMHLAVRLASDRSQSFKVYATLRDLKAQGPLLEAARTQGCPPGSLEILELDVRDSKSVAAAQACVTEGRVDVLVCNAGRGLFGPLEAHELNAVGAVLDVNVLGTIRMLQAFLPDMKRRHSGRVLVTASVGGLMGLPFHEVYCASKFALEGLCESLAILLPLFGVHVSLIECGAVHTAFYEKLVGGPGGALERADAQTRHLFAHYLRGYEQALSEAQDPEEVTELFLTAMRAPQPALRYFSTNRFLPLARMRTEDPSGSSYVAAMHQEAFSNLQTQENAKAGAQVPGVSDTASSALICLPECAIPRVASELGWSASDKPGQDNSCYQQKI

Compound | inhibition [1] [%] | inhibition [2] [%] | inhibition [3] [%]
Cc1ccc(C(=O)c2cc(F)c(F)c(O)c2F)s1 | 56 | – | –
COc1c(C)cc(-c2ccc(C(=O)c3cc(F)c(F)c(O)c3F)s2)cc1C | – | 22.4 | 26.8
Cc1c(O)cccc1C(=O)c1ccc(-c2ccc(O)c(Cl)c2)s1 | 31 | – | –
O=C(c1ccc(-c2cccc(CO)c2)s1)c1cc(F)c(F)c(O)c1F | – | 21 | 22
Cc1cc(-c2ccc(C(=O)c3cccc(O)c3C)s2)cc(C)c1O | 46 | – | –

Second part, the compound after the results:

inhibition [1] [%] | inhibition [2] [%] | inhibition [3] [%] | Compound
45 | – | – | Cc1c(O)cccc1C(=O)c1ccc(-c2cc(Cl)c(O)c(Cl)c2)s1
23 | – | – | COc1c(C)cc(-c2ccc(C(=O)c3cccc(O)c3C)s2)cc1C
20 | – | – | COc1c(Cl)cc(-c2ccc(C(=O)c3cccc(O)c3C)s2)cc1Cl
